Earlier results on one substance are cited in patent US6225288A, “Gamma-ketoacid dipeptides as inhibitors of caspase-3” (Merk Frosst Canada & Co., priority 2000, dated 2001).

One data set concerns the target T1, caspase-1 (Homo sapiens, UniProt P29466).
T1 sequence (P29466 120-297 limits assumed): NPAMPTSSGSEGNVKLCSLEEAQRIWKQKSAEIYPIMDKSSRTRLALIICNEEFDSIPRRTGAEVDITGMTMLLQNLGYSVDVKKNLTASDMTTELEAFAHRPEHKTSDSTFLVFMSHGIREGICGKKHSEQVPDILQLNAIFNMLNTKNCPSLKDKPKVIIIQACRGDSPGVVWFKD
T1 sequence (P29466 317-404 limits assumed): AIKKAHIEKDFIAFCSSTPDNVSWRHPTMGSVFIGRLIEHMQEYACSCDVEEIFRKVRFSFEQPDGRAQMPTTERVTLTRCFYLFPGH

The target in the next data set is T2, caspase-3 (Homo sapiens, UniProt P42574).
T2 sequence (P42574 29-175 limits assumed): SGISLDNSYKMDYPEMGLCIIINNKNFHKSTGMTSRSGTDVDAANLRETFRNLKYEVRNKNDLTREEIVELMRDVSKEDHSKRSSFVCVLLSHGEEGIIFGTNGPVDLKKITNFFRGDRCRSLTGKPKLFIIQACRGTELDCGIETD
T2 sequence (P42574 176-277 limits assumed): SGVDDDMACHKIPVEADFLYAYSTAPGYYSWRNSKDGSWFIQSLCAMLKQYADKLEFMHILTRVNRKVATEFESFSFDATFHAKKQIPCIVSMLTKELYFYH

The Ki is the equilibrium dissociation constant of an inhibitor or competing ligand from its target. In the case of Ac-DEVD-CHO, the “inhibition of caspase-1 (in words)” value on caspase-1 is on record as “weaker but reasonable inhibitor of caspase-1”. Besides, the Ki on caspase-3 was under 1 nM.
